{
  "source": "patent EP4075981B1",
  "about": "“COMPOSITION FOR LICE CONTROL” (dated 2026)",
  "key": {"[1]": {"test_system": "sheep body lice (Bovicola ovis)", "assay": "Example 1: efficacy of a single oral dose against lice on sheep with 9 months wool growth", "settings": "for Percentage Efficacy (lice counts, Henderson-Tilton): diazinon resistant lice, by 13 days post-treatment, maintained until Day 140; for viable lice eggs: from Day 41 until last count on Day 140"}, "[2]": {"test_system": "sheep body lice (Bovicola ovis)", "assay": "Example 2: efficacy of a single oral dose against lice on sheep off-shears"}, "[3]": {"test_system": "sheep body lice (Bovicola ovis)", "assay": "Example 3: efficacy of a single oral dose against lice on long wool sheep", "settings": "for efficacy (lice counts): by 14 days post-treatment at each wool length (3, 6 and 9 months of wool growth); for viable lice eggs: from Day 42 at the 6- and 9-months wool lengths"}, "[4]": {"test_system": "sheep body lice (Bovicola ovis)", "assay": "Example 4: persistency determination (lice challenge after a single oral dose)", "settings": "for lice or viable lice eggs found on the sheep: 2 months wool, after either challenge (Day 0-7 or Day 7-14 post-treatment), 14, 21, 42 and 84 days ± 1 day post-challenge"}, "[5]": {"settings": "dogs, oral administration, 1 mg/kg bw; cited from earlier work"}, "[6]": {"assay": "Pharmacokinetic study in sheep off-shears (topical, oral and subcutaneous administration)", "settings": "3 mg/kg bw"}},
  "data": [
    {"compound": "Cc1cc(C2=NOC(c3cc(Cl)cc(Cl)c3)(C(F)(F)F)C2)ccc1C(=O)NCC(=O)NCC(F)(F)F", "note": "(centres unmarked)", "values": [
      {"measurement": "Percentage Efficacy (lice counts, Henderson-Tilton)", "setting": "[1]; 2 mg/kg once orally", "value": 100, "unit": "%"},
      {"measurement": "viable lice eggs", "setting": "[1]; 2 mg/kg once orally", "value": "no viable lice eggs detected"},
      {"measurement": "Percentage Efficacy (lice counts, Henderson-Tilton)", "setting": "[1]; 3 mg/kg once orally", "value": 100, "unit": "%"},
      {"measurement": "viable lice eggs", "setting": "[1]; 3 mg/kg once orally", "value": "no viable lice eggs detected"},
      {"measurement": "efficacy (lice counts)", "setting": "[2]; 0.5 mg/kg once orally, 7 days post-treatment", "value": "above 99%"},
      {"measurement": "efficacy (lice counts)", "setting": "[2]; 0.5 mg/kg once orally, by 14 days post-treatment until final count on Day 112", "value": 100, "unit": "%"},
      {"measurement": "viable lice eggs", "setting": "[2]; 0.5 mg/kg once orally, from Day 21 until final count on Day 112", "value": "no viable lice eggs detected"},
      {"measurement": "efficacy (lice counts)", "setting": "[2]; 1.0 mg/kg once orally, by 7 days post-treatment", "value": 100, "unit": "%"},
      {"measurement": "efficacy (lice counts)", "setting": "[2]; 1.0 mg/kg once orally, by 14 days post-treatment until final count on Day 112", "value": 100, "unit": "%"},
      {"measurement": "viable lice eggs", "setting": "[2]; 1.0 mg/kg once orally, from Day 21 until final count on Day 112", "value": "no viable lice eggs detected"},
      {"measurement": "efficacy (lice counts)", "setting": "[2]; 1.5 mg/kg once orally, by 7 days post-treatment", "value": 100, "unit": "%"},
      {"measurement": "efficacy (lice counts)", "setting": "[2]; 1.5 mg/kg once orally, by 14 days post-treatment until final count on Day 112", "value": 100, "unit": "%"},
      {"measurement": "viable lice eggs", "setting": "[2]; 1.5 mg/kg once orally, from Day 21 until final count on Day 112", "value": "no viable lice eggs detected"},
      {"measurement": "efficacy (lice counts)", "setting": "[2]; 2.0 mg/kg once orally, by 7 days post-treatment", "value": 100, "unit": "%"},
      {"measurement": "efficacy (lice counts)", "setting": "[2]; 2.0 mg/kg once orally, by 14 days post-treatment until final count on Day 112", "value": 100, "unit": "%"},
      {"measurement": "viable lice eggs", "setting": "[2]; 2.0 mg/kg once orally, from Day 14 until final count on Day 112", "value": "no viable lice eggs detected"},
      {"measurement": "viable lice eggs", "setting": "[2]; 2.0 mg/kg once orally, from Day 21 until final count on Day 112", "value": "no viable lice eggs detected"},
      {"measurement": "efficacy (lice counts)", "setting": "[3]; 1.5 mg/kg once orally", "value": 100, "unit": "%"},
      {"measurement": "viable lice eggs", "setting": "[3]; 1.5 mg/kg once orally", "value": "no viable lice eggs detected"},
      {"measurement": "efficacy (lice counts)", "setting": "[3]; 2.0 mg/kg once orally", "value": 100, "unit": "%"},
      {"measurement": "viable lice eggs", "setting": "[3]; 2.0 mg/kg once orally", "value": "no viable lice eggs detected"},
      {"measurement": "lice or viable lice eggs found on the sheep", "setting": "[4]; 1.5 mg/kg once orally", "value": "No lice or viable lice eggs were found"},
      {"measurement": "lice or viable lice eggs found on the sheep", "setting": "[4]; 2.0 mg/kg once orally", "value": "No lice or viable lice eggs were found"},
      {"measurement": "no lice infestation is established on the treated sheep for", "setting": "[4]; one oral treatment, challenged with lice within 2 weeks after administration (summary of Example 4)", "value": "more than 12 weeks"},
      {"measurement": "effective blood levels obtained for", "setting": "[5]", "value": "at least 56 days"},
      {"measurement": "AUC", "setting": "[6]; Group 3 (oral), compared with topical and SC", "value": "Higher"},
      {"measurement": "fluralaner levels in sheep blood", "setting": "[6]; oral, by day 12 post-dosing", "value": "below 1 ng/mL"}
    ]},
    {"compound": "Cc1cc(C2=NO[C@@](c3cc(Cl)cc(Cl)c3)(C(F)(F)F)C2)ccc1C(=O)NCC(=O)NCC(F)(F)F", "values": [
      {"measurement": "peak of mean S-fluralaner plasma concentration", "setting": "[6]; oral (Group 3)", "value": "ca. 100 ng/mL"},
      {"measurement": "concentration of all sheep/individuals", "setting": "[6]; oral, by 21 days post-dosing", "value": "below the LLOQ"}
    ]}
  ]
}
